In publication PMC5503534, “Stable aneuploid tumors cells are more sensitive to TTK inhibition than chromosomally unstable cell lines” (Oncotarget, 2017):

Tests used:
[1] = system: HCT 116 colon carcinoma cell line; assay: Cell proliferation assay (ATPlite), HCT 116
[2] = system: LoVo colorectal adenocarcinoma cell line; assay: Cell proliferation assay (ATPlite), LoVo; settings: 5 day proliferation assay
[3] = system: A-172 glioblastoma cell line; assay: Cell proliferation assay (ATPlite), A-172; settings: 5 day proliferation assay
[4] = system: DoTc2 4510 cervix carcinoma cell line; assay: Cell proliferation assay (ATPlite), DoTc2 4510; settings: 5 day proliferation assay
[5] = system: MG-63 osteosarcoma cell line; assay: Cell proliferation assay (ATPlite), MG-63; settings: 5 day proliferation assay
[6] = system: OVCAR-3 ovary adenocarcinoma cell line; assay: Cell proliferation assay (ATPlite), OVCAR-3; settings: 5 day proliferation assay
[7] = system: post-tetraploid HPT1 cells; assay: Cell proliferation assay, post-tetraploid HPT1; settings: HPT1, five days
[8] = system: post-tetraploid HPT2 cells; assay: Cell proliferation assay, post-tetraploid HPT2; settings: HPT2, five days
[9] = system: post-tetraploid HPT4 cells; assay: Cell proliferation assay, post-tetraploid HPT4; settings: HPT4, five days
[10] = system: 66 cancer cell lines (44 cell lines); settings: read-out: average IC50; 5 days; geometric average in 66 cancer cell lines; cited from earlier work
[11] = geometric average of three experiments

CC(C)CNc1nccn2c(-c3ccc(C(=O)NC4CC4)cc3)cnc12
IC50 ([1]; 5 day proliferation assay, HCT 116 (Suppl. Table 1)): 1390 nM
Eff. (%) ([1]; HCT 116, five days, maximum inhibitory effect, average of three experiments): 87%
IC50 ([1]; HCT 116 near-diploid, five days, geometric average of three experiments (Suppl. Table 2A)): 1580 nM
IC50 [2]: 1430 nM
IC50 [3]: 1630 nM
IC50 [4]: 2560 nM
IC50 [5]: 3760 nM
IC50 [6]: 5490 nM
Efficacy (%) ([7]; average of three experiments): 66%
IC50 [7, 11]: 1890 nM
Efficacy (%) ([8]; average of three experiments): 49%
IC50 [8, 11]: 1800 nM
Efficacy (%) ([9]; average of three experiments): 52%
IC50 [9, 11]: 1580 nM
IC50 [10]: 1820 nM
